Experiments:
[1] = target: T1, Neuropeptides B/W receptor type 1 (Mus musculus, UniProt P49681); assay: Displacement of [125]-hNPW23 from mouse NPBWR1 expressed in CHO-K1 cells membrane by scintillation proximity assay; assay type: cell membranes
T1 sequence (P49681 whole entry): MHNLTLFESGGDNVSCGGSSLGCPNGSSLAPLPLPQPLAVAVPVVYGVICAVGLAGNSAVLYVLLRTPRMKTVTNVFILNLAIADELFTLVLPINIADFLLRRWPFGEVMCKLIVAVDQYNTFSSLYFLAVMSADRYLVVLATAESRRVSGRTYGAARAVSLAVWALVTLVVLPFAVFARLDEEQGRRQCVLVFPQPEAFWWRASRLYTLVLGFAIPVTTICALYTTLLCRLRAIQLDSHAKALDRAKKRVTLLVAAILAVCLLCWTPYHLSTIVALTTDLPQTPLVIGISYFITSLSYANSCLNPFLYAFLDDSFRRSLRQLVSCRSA

[2] = target: T1, Neuropeptides B/W receptor type 1; assay: Antagonist activity at mouse NPBWR1 expressed in CHO-K1 cells assessed as inhibition of hNPW23 and forskolin-stimulated cAMP production after 1 hr by TR-FRET assay; assay type: functional, cell-based

SMILES	IC50 [1] [nM]	IC50 [2] [nM]
COc1ccc(C2(N[C@@H]3CC[C@H](C(=O)N4CCN(c5nc6cc(C)ccc6o5)CC4)[C@@H](c4ccsc4)C3)CCC2)cc1	0.43	3.9
COc1ccc(C(C)(C)N[C@@H]2CC[C@H](C(=O)N3CCN(c4nc5ccccc5o4)CC3)[C@@H](c3ccsc3)C2)cc1	1.9	9.2
COc1ccc(C2(N[C@@H]3CC[C@H](C(=O)N4CCN(c5nnc(C(F)(F)F)s5)CC4)[C@@H](c4ccsc4)C3)CCC2)cc1	2.2	14
COc1ccc(C2(N[C@@H]3CC[C@H](C(=O)N4CCN(c5nc6ccccc6o5)CC4)[C@@H](c4ccsc4)C3)CCC2)cc1	0.69	5.9
COc1ccc(C(C)(C)N[C@@H]2CC[C@H](C(=O)N3CCN(c4nc5ccccc5[nH]4)CC3)[C@@H](c3ccsc3)C2)cc1	2.4	4.6
COc1ccc(C2(N[C@@H]3CC[C@H](C(=O)N4CCN(c5nnc(Br)s5)CC4)[C@@H](c4ccsc4)C3)CCC2)cc1	2.6	12
